From patent publication US20080241919A1, “Defined media for pluripotent stem cell culture” (The Burnham Institute of Medical Research, priority 2003, published 2008) come the findings set out here.

In the experiment the test system is human embryonic stem cells (hESCs). The experiment in a line: Other growth factors in place of bFGF for undifferentiated growth of hESCs. Format: cell-based. As to conditions: feeder- and serum-free conditions. As for the experimental part:
All the growth factors were dissolved in a PBS buffer that contained 0.5% BSA, 1 mM DTT (Dithiothreitol) and 10% glyceral as a 10 μg/ml (500×) stock solution and stored in aliquots at −80° C. These factors were added individually to the hESC cultures at a concentration of 20 ng/ml, in the absence of bFGF or in the presence of a low concentration of bFGF (4 ng/ml). Seven days after seeding undifferentiated hESCs on laminin/collagen-coated plates, the cultures were examined.

B1: BMP-2: bone morphogenic protein 2 (protein, UniProt P12643 283-396, looked up)
Bone morphogenetic protein 2: QAKHKQRKRLKSSCKRHPLYVDFSDVGWNDWIVAPPGYHAFYCHGECPFPLADHLNSTNHAIVQTLVNSVNSKIPKACCVPTELSAISMLYLDENEKVVLKNYQDMVVEGCGCR
Regarding B1, the “ability to replace bFGF in supporting undifferentiated growth of hESCs” value was “can not replace bFGF”.
